Biological target: tetrameric transthyretin (Homo sapiens, UniProt P02766)
Assay: Immuno-turbidimetric assay 1: plasma + compound, 4.8 M urea, glutaraldehyde cross-linking, Olympus OSR6175 reagent
Settings: 7.2 μM, plasma with 17.7, 25.4 or 30.1 mg/dL transthyretin, FIG. 8

Kinetics of tetrameric transthyretin stabilization at different transthyretin concentrations: equivalent
Compound: O=C(O)c1ccc2nc(-c3cc(Cl)cc(Cl)c3)oc2c1 [Cmp. 2]
Efficacy on different plasma concentrations of transthyretin (days 1-3): equivalently effective on different concentrations of transthyretin
